This note sets out measurements from PubChem BioAssay AID1632 (University of Pittsburgh Molecular Library Screening Center, 2009).

As usually defined, the inhibition is the change of the read-out against control, counted positive when it falls.

The test addresses hexokinase 1 [Trypanosoma brucei]. Kind of test: T. brucei hexokinase 1 inhibitor potency, dose response, biochemical, IC50 (AID 1632). To be noted: recombinant TbHK1 enzyme assay, absorbance read-out, at 100 µM, stronger effect = higher value.

Molecules are shown by their SMILES. Only a part is listed here, and it is no random draw. Results filed as inconclusive are left out.

Consider `O=c1c2ccccc2[se]n1-c1ccccc1`, for which the inhibition was 85.7%.
